The results in this text go back to patent US20030032203A1, “Small molecule microarrays” (published 2003).

SMILES strings stand for the structures.

The subject of this test is A549cells. Kind of test: PDLAG sandwich test compound array, effects on cell viability and morphology. As to conditions: three concentrations; 32 hours at 37C; blinded observers; ring size increasing with concentration.

Take `O=[As]c1ccccc1` (stereo not shown): the “effect on cell morphology and viability” value was “caused a ring of clearing in the cells”.
